System: lambda DNA
Assay: Single-molecule DNA sliding assay on flow-stretched DNA (TIRF microscopy)
Set-up: species or system bacteriophage lambda
Settings: Cy3b-labeled peptide, pH 7.5, 100 pM
Description: To determine whether AVP-pVIc complexes slide on DNA, Applicants used single-molecule fluorescence microscopy (FIG. 10C) with flow-stretched DNA, (FIG. 10D,E) (Kabata, H. et al. Visualization of single molecules of RNA polymerase sliding along DNA. Science 262, 1561-3 (1993); Harada, Y. et al. Single-molecule imaging of RNA polymerase-DNA interactions in real time. Biophys. J. 76, 709-715 (1999) and Blainey, P. C., van Oijen, A. M., Banerjee, A., Verdine, G. L. & Xie, X. S. A base-excision DNA-repair protein finds intrahelical lesion bases by fast sliding in contact with DNA. Proc Natl Acad Sci USA 103, 5752-7 (2006)). […] Biochemistry 40, 13237-13245 (2001)), and furthermore to diffuse rapidly over tens of thousands of base pairs before dissociating from the DNA. […] Despite the optical resolution limit imposed by diffraction, the centroid position of each signal in each frame was determined with 11 nm spatial precision at 3.5 ms time resolution (Gelles, J., Schnapp, B. J. & Sheetz, M. P. Tracking kinesin-driven movements with nanometer-scale precision. Nature 331, 450-3 (1988) and Thompson, R. E., Larson, D. R. & Webb, W. W. Precise nanometer localization analysis for individual fluorescent probes. Biophys J 82, 2775-83 (2002)), FIG. 12B. […]
Due to the speed and duration of sliding by AVP-pVIc complexes, these events were readily identifiable manually. […]

N=C(N)NCCC[C@H](NC(=O)[C@H](CCCNC(=N)N)NC(=O)[C@H](CCCNC(=N)N)NC(=O)[C@@H](N)CCCCN)C(=O)N[C@@H](CS)C(=O)N[C@@H](Cc1ccccc1)C(=O)O [KRRRCF]
Average diffusion coefficient: 25×10^6 bp^2/sec

Source: US10065989B2, “Molecular sleds and uses thereof” (The Broad Institute, Inc., priority 2012, dated 2018)
